Values quoted from earlier work as cited in patent US6444645B1, “Crosslink-stabilized indolicidin analogs” (The Regents of the University of California, priority 1998, dated 2002).

System: fungal infection
Details: indolicidin incorporated into liposomes, mice, cited from earlier work

For “Ile-Leu-Pro-Trp-Lys-Trp-Pro-Trp-Trp-Pro-Trp-Arg-Arg-CONH2 [Indol 1-13]”, the “antifungal activity in vivo” value is listed as “antifungal activity in vivo” and the “antifungal activity in vivo” value (listed as native indolicidin) is listed as “fungal infection in mice could be cured”.

Read-outs that look alike come from different tables or passages of the source.
